Assay results published in PubChem BioAssay AID434973 (Sanford-Burnham Center for Chemical Genomics, 2010).
Only a part is listed here, and it is no random draw. Calls of active or inactive are those of the source.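 Rule for the calls: active = inhibition above about 50% at the single test dose (limit read from the data); inactive = the rest.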

Protein sequences, listed by entry. Tags and fused reporters are not part of them. Lines headed by an entry give the natural chain unless they say otherwise; changes in a name come on top.
UniProt Q9BQF6: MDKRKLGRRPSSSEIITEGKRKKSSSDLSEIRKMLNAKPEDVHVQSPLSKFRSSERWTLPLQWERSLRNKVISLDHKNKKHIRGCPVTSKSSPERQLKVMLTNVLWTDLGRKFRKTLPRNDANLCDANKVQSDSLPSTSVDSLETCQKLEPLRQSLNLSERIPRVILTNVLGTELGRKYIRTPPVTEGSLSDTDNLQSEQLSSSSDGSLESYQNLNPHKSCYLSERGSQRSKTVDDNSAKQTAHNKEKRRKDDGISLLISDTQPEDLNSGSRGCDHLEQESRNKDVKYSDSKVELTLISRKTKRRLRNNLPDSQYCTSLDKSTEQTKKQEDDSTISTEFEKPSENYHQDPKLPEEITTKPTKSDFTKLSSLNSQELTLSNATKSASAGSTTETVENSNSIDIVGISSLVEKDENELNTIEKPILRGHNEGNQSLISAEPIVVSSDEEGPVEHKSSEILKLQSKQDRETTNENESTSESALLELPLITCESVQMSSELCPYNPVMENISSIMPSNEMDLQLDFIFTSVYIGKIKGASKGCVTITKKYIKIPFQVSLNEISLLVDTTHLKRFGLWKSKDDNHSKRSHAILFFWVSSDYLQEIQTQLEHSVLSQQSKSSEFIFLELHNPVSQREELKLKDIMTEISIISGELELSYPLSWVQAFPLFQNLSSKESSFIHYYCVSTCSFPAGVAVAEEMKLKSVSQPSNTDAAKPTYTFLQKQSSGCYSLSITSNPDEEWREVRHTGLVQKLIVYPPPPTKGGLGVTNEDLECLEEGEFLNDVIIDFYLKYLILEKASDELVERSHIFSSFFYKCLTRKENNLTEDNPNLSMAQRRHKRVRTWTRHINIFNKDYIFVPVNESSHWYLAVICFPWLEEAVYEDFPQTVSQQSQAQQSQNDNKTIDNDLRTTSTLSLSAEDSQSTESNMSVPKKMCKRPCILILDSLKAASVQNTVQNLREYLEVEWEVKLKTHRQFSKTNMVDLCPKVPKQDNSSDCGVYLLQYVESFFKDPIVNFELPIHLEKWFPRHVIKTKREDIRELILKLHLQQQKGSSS

The compounds below were run against Sentrin-specific protease 7 (Homo sapiens) (UniProt Q9BQF6) (assay: SENP7 protease inhibitors, primary screen, biochemical, luminescence, uHTS (AID 434973;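 note: plate controls were DMSO with enzyme for no effect and no enzyme buffer wells for full effect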)). Settings: recombinant SENP7, Z-RLRGG-aminoluciferin luminescence, 40 min; at 5 µM; active compounds read high.

SMILES	inhibition
Cc1ccc(OP(=O)(Nc2ccc([N+](=O)[O-])cn2)Oc2ccc(C)cc2)cc1	inactive: 3.89%
Cc1ccc2nc3c(c(C)c2c1)CC(C(Cl)Cl)S3 (stereo unspecified)	inactive: -4.52%
C[As](=O)(O)c1cccc(C(=O)O)c1	inactive: 7.24%
O=[As](O)(c1ccc(O)cc1)c1ccccc1O	inactive: -2.94%
COc1cc(C(=O)NCC2(N3CCOCC3)CCCCC2)ccc1OCC(C)C	inactive: 0.953%
COc1ccc(N/C(=N/P(=O)(N2CCOCC2)N2CCOCC2)N2CCOCC2)cc1	inactive: 3.92%
COc1ccc2nc(NP(=O)(c3ccccc3)c3ccccc3)sc2c1	inactive: -4.59%
COc1cc(I)ccc1[As](=O)(O)O	inactive: -4.43%
Cc1c2c(nc3ccccc13)SC(C(Cl)Cl)C2 (stereo unspecified)	inactive: -6.5%
O=C(OC1CN2CCC1CC2)C12CC3CC(CC(C3)C1)C2 (stereo unspecified)	inactive: 5.97%
Cc1cc(=O)[nH]c(N[N+](=O)[O-])n1	inactive: -5.5%
Oc1ccccc1CNc1ccccn1	inactive: -3.7%
Cc1c2non([O-])c-2c(C)[n+](=O)[n+]1[O-]	inactive: 3.48%
O=C(NC(Sc1ccncn1)C(Cl)(Cl)Cl)c1ccccc1 (stereo unspecified)	inactive: -5.51%
CC(C)CC(=O)NC(Sc1ccc(Cl)cc1)C(Cl)(Cl)Cl (stereo unspecified)	inactive: -4.85%
Nc1cc(N)c2nonc2c1[N+](=O)[O-]	inactive: 6.51%
Clc1ccc(Cl)c(NC2=NCC(CBr)S2)c1 (stereo unspecified)	inactive: 3.98%
CN1CCCC(OC(=O)C(c2ccccc2)c2ccccc2)C1 (stereo unspecified)	inactive: 0.1%
COc1ccccc1OP(=O)(Nc1ccc(C)cn1)Oc1ccccc1OC	inactive: -14.6%
Cc1ccc(OP(=O)(Nc2nccs2)Oc2ccc(C)cc2)cc1	inactive: 0.462%
CN(C(=O)Cc1ccc(Cl)c(Cl)c1)[C@H]1CCCC[C@H]1N1CCCC1	inactive: 3%

SMILES	inhibition
Cc1ccc(N/C(=N/P(=O)(N2CCOCC2)N2CCOCC2)N2CCOCC2)cc1	inactive: 7.62%
NC(=O)c1cc([N+](=O)[O-])cc([N+](=O)[O-])c1N	inactive: -14.5%
CCN(N=Nc1nonc1N)c1nonc1N	inactive: -1.36%
O=[N+]([O-])c1cc([N+](=O)[O-])c(CCN2CCOCC2)c([N+](=O)[O-])c1	inactive: 8.63%
CCOP(=O)(Nc1ccccc1)OCC	inactive: -3.48%
Cc1cc(SC(NC(=O)c2ccc(F)cc2)C(Cl)(Cl)Cl)ncn1 (stereo unspecified)	inactive: -6.53%
CN(C(=O)Cc1ccc(Cl)c(Cl)c1)[C@H]1CCCC[C@@H]1N1CCCC1	inactive: -2.76%
Cc1ccc(NP(=O)(Oc2ccccc2F)Oc2ccccc2F)nc1	inactive: 7.18%
O=P(Nc1nc2ccc(Cl)cc2s1)(c1ccccc1)c1ccccc1	inactive: -8.7%
O=C(O)c1ccccc1[As](=O)(O)O	inactive: -3.95%
CC(=O)Nc1ccc([As](=O)(O)O)cc1	inactive: -0.787%
O=[N+]([O-])c1cccc(NC2=NCC(CBr)S2)c1 (stereo unspecified)	inactive: 5.17%
O=[N+]([O-])c1ncn(CCn2ncnc2[N+](=O)[O-])n1	inactive: -2.38%
CC(C)(C)C(=O)NC(Sc1ccncn1)C(Cl)(Cl)Cl (stereo unspecified)	inactive: 2.14%
O=C(Nc1cc([As](=O)(O)O)ccc1O)c1ccccc1	inactive: -8.84%
CC1CCN(C(=O)Oc2c(Cl)cc(Cl)c3cccnc23)CC1	inactive: -2.64%
CN(C)C(=O)OCCc1n(C)cc[n+]1C	inactive: 2.97%
CCN(/C(=N/P(=O)(N1CCOCC1)N1CCOCC1)N1CCOCC1)c1ccc(OC)cc1	inactive: 3.25%
Nc1ccc([As](=O)(O)c2ccc(N)cc2)cc1	inactive: 2.16%
C[N+]1=C2C=CC=CC=C2SC12C([N+](=O)[O-])=CC([N+](=O)[O-])=C[C-]2[N+](=O)[O-] (stereo unspecified)	inactive: -2.26%
Cc1ccc(NP(=O)(Oc2ccccc2)Oc2ccccc2)nc1	inactive: -6.89%

SMILES	inhibition
O=[N+]([O-])c1cc([N+](=O)[O-])c(CCNc2ccccc2)c([N+](=O)[O-])c1	inactive: 6.26%
CCc1nc2c(n1)c1c(non1O)c1c2no[n+]1[O-]	inactive: 15.6%
CC(=O)N1C2C3N(C(C)=O)C1C1N(C(C)=O)C(C(N1C(C)=O)N3C(C)=O)N2C(C)=O	inactive: 3.57%
O=[N+]([O-])c1cccc2n[nH]nc12	inactive: -4.43%
COc1ccc(C2=NCC(CBr)S2)cc1 (stereo unspecified)	inactive: 2.99%
c1nnnn1CCn1cnnn1	inactive: -9.66%
O=P(Nc1nccs1)(c1ccccc1)c1ccccc1	inactive: 3.24%
CC(C)C(=O)NC(Sc1ccccc1)C(Cl)(Cl)Cl (stereo unspecified)	inactive: -3.1%
O=C(OC1CN2CCC1CC2)c1cccc(Cl)c1 (stereo unspecified)	inactive: 1.75%
Nc1ccc([As](=O)(O)c2ccc([N+](=O)[O-])cc2)cc1	inactive: 5.76%
C(Cc1nn[nH]n1)Cc1nn[nH]n1	inactive: -1.76%
O=[As](O)(c1ccccc1)c1ccc(O)cc1	inactive: -6.53%
O=[N+]([O-])c1ncn(CCn2cnc([N+](=O)[O-])n2)n1	inactive: 8.71%
O=P(Nc1nc2ccccc2s1)(c1ccccc1)c1ccccc1	inactive: 3.36%
C[C@H]1OP(=O)(Oc2ccccc2)[C@H](O)[C@H](O)[C@H]1N=[N+]=[N-] (stereo partly specified)	inactive: -15.2%
CN(C)C1(CNC(=O)c2ccc(Cl)c(S(N)(=O)=O)c2)CCCCC1	inactive: 6.83%
O=P(Nc1ccccn1)(c1ccc(Br)cc1)c1ccc(Br)cc1	inactive: -1.2%
Cc1ccccc1OP(=O)(Nc1ccccn1)Oc1ccccc1C	inactive: 2.19%
CC(NC(=O)COC(=O)C(O)(c1ccccc1)c1ccccc1)c1ccccc1 (stereo unspecified)	inactive: -8.48%
CN(C)C(=O)Oc1noc2ccccc12	inactive: -1.89%
O=C(OC1CN2CCC1CC2)c1ccccc1 (stereo unspecified)	inactive: -4.76%

SMILES	inhibition
CCC(=O)N1C2C3N(C(=O)CC)C1C1N(C(=O)CC)C(C(N1C(=O)CC)N3C(=O)CC)N2C(=O)CC	inactive: 2.37%
COC(=O)c1cc2c(s1)N=C(c1ccccc1)N(C)P2(=O)N1CCOCC1 (stereo unspecified)	inactive: 1.16%
Cc1ccc(OP(=O)(Nc2ccccn2)Oc2ccc(C)cc2)cc1	inactive: -8.2%
CC(=O)NC(SC(=S)N(CC(C)C)CC(C)C)C(Cl)(Cl)Cl (stereo unspecified)	inactive: -3.08%
c1ccc(-c2nn[nH]n2)c(-c2nn[nH]n2)c1	inactive: 2.71%
CCOC(=O)NC(Sc1ccccc1)C(Cl)(Cl)Cl (stereo unspecified)	inactive: 3.66%
Cc1ccc(NP(=O)(Oc2cccc(C)c2)Oc2cccc(C)c2)nc1	inactive: -11.6%
O=C(NC1CCS(=O)(=O)C1)NP(=S)(Oc1ccccc1)Oc1ccccc1 (stereo unspecified)	inactive: 6.42%
CCNC(=S)/N=C(\N)N[N+](=O)[O-]	inactive: -1.77%
CC(=O)Nc1ccc([As](=O)(O)O)c(O)c1	inactive: -4.05%
CC(=O)Nc1ccc(Oc2c([N+](=O)[O-])cc([N+](=O)[O-])cc2[N+](=O)[O-])cc1	inactive: -5.58%
Cc1ccccc1CN(C)C(=O)COC(=O)C(O)(c1ccccc1)c1ccccc1	inactive: -11.9%
C[C@@H]1C=CCP(=O)(Oc2ccccc2)O1 (stereo partly specified)	inactive: -11.7%
C[C@H]1OP(=O)(Oc2ccccc2)C[C@@H]2O[C@@H]21 (stereo partly specified)	inactive: -4.48%
CC(=O)c1ccc(N2CC2c2ccncc2)cc1 (stereo unspecified)	inactive: -4.08%
CC(C)(C)C(=O)NC(Sc1ccccc1)C(Cl)(Cl)Cl (stereo unspecified)	inactive: 3.33%
O=P1(Nc2nc3ccc(Cl)cc3s2)COc2ccccc2O1 (stereo unspecified)	inactive: 4.5%
CCOc1ccc(C2=NCC(CBr)S2)cc1 (stereo unspecified)	inactive: 2.37%
